Measurements taken from patent US20240091321A1.
pKd: −log10 of the molar value.

Biological target: CI-MPR receptor
Test: CI-MPR plate binding assay (96-well plates coated with CI-MPR), bound GAA activity

EC50 (read off the curve) [nM] | Substance
4 | alglucosidase alfa (from UniProt P10253) (enzyme)

Biological target: CI-MPR receptor
Test: CI-MPR plate binding assay, conditioned media of HEK293T cells, bound GAA activity, fit of the curves of FIG. 40

Bmax [nmol/mL/h] | pKd | Substance
21 | 7.89 | vIGF2-10-GAA (enzyme)
16 | 7.60 | vIGF2-13-GAA (enzyme)
14 | 7.35 | vIGF2-16-GAA (enzyme)
82 | 7.72 | vIGF2-18-GAA (enzyme)

Biological target: CI-MPR receptor
Test: CI-MPR plate binding assay, conditioned media of HEK293T cells, bound GAA activity, fit of the curves of FIG. 42

Bmax [nmol/mL/h] | pKd | Substance
67 | 7.96 | vIGF2-21-GAA (enzyme)
24 | 7.41 | vIGF2-27-GAA (enzyme)

The next lines start with the substance.

Substance | Bmax [nmol/mL/h] | pKd
vIGF2-22-GAA (enzyme) | 46 | 8.06
vIGF2-23-GAA (enzyme) | 20 | 7.72
vIGF2-24 (vIGF2 Δ31-38GGGG V43L) vIGF2-GAA construct (from UniProt P10253 61-952) (enzyme) | 50 | 8.74
vIGF2-28-GAA (enzyme) | 66 | 7.21
vIGF2-29-GAA (enzyme) | 69 | 7.15

Biological target: CI-MPR receptor
Test: CI-MPR plate binding assay, conditioned media of HEK293T cells, bound GAA activity, fit of the curves of FIG. 44

Bmax [nmol/mL/h] | pKd | Substance
14 | 7.70 | vIGF2-31-GAA (enzyme)
18 | 7.82 | vIGF2-32-GAA (enzyme)
87 | 7.13 | vIGF2-33-GAA (enzyme)

Second part, the substance before the results:

Substance | Bmax [nmol/mL/h] | pKd
vIGF2-22-GAA (enzyme) | 35 | 7.80
vIGF2-34-GAA (enzyme) | 54 | 7.29

Biological target: CI-MPR receptor
Test: affinity chromatography on immobilized CI-MPR, elution with a gradient of M6P, GAA activity (F460) of the fractions

fraction of GAA activity in the flow-through (not bound) [%] | Substance
73 | alglucosidase alfa (from UniProt P10253) (enzyme)
